Data as given in US11247985B2, “Phenyl indole allosteric inhibitors of P97 ATPase” (University of Pittsburgh—Of the Commonwealth System of …, priority 2015, dated 2022).

By UniProt entry, the sequences of proteins in these tests, tags left out.
UniProt P55072, whole entry: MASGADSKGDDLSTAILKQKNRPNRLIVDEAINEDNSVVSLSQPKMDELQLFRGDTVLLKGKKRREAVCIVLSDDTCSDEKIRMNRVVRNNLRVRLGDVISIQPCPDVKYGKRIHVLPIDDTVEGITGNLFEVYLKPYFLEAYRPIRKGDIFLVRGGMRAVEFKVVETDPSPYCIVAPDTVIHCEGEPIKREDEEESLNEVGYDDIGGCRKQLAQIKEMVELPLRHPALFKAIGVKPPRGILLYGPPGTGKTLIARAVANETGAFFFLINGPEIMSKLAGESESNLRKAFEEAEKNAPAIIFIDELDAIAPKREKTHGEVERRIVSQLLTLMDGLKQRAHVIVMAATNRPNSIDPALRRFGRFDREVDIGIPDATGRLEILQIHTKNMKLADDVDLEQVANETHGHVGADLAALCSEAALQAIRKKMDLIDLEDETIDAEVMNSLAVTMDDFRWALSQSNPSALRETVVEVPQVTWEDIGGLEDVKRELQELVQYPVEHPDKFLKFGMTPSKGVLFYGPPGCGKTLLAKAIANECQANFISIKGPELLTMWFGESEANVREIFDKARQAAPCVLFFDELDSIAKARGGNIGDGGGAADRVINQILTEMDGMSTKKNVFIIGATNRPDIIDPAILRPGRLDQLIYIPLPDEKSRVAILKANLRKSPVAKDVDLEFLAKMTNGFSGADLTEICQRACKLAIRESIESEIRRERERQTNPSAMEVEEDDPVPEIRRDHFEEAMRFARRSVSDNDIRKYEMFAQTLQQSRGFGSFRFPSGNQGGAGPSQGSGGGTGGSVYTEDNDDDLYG

Molecular target: p97 ATPase WT (Homo sapiens (Human), UniProt P55072)
Assay: p97 ADP-Glo assay
Type: biochemical
Conditions: Table 3; read-out: ADPGlo IC50
Excerpt: ADP-Glo™ (Promega Corp.) is a bioluminescent, homogeneous assay that measures ADP formed from a biochemical reactions. Because of its high sensitivity, the assay is suitable for monitoring enzyme activities at very early substrate conversions requiring very low amount of enzymes.
The ADP-Glo assay can be conducted as described in Chou, T.-F.; Bulfer, S. L.; Weihl, C.

Question: With `CC(C)N1CCN(CCNC2CCN(c3cccc(-c4cc5ccccc5[nH]4)c3)CC2)CC1` as the molecule, how does the IC50 read?
Answer: Its IC50 is 100 nM.
